Measurements taken from publication PMC13585564.
One block for each substance: values may come before it.

Assays:
[1] = target: HSL3 ectodomain (wild type, residues 23–627) (Arabidopsis); experiment: ITC; CTNIP4 peptide (140–800 µM, syringe) injected into 15 µM HSL3 ectodomain or variant (cell); 25 °C; 20 mM sodium citrate, 150 mM NaCl, pH 5.0; N fitted to 1
[2] = target: HSL3 ectodomain (wild type, residues 23–627) (Arabidopsis); experiment: ITC

fold loss of affinity against CTNIP4(46–70) (Cys–Cys) [1]: 200 fold
Substance: CTNIP4(48–70)_(Cys–Cys) (peptide)

fold reduction in binding affinity against CTNIP4(46–70) (Cys–Cys) [1]: 200 fold
Substance: CTNIP4^C58A(46–63) (peptide)

fold reduction in binding affinity against CTNIP4(46–70) (Cys–Cys) [1]: 120 fold
Substance: CTNIP4^I61Y(46–70)_(Cys–Cys) (peptide)

More lines, now with the values behind:

Substance: CTNIP4(41–70)_(Cys–Cys) (peptide)
fold reduction in affinity against CTNIP4(46–70) (Cys–Cys) [1]: < 60 fold

Substance: CTNIP4(44–70)_(Cys–Cys) (peptide)
fold reduction in affinity against CTNIP4(46–70) (Cys–Cys) [1]: < 60 fold

Substance: CTNIP4(45–70)_(Cys–Cys) (peptide)
fold reduction in affinity against CTNIP4(46–70) (Cys–Cys) [1]: < 60 fold

Substance: CTNIP4(47–70)_(Cys–Cys) (peptide)
fold reduction in binding against CTNIP4(46–70) (Cys–Cys) [1]: 4 fold

Substance: CTNIP4^C58A.C68A(46–70)_(linear)
Kd [2]: 20.7 µM
